Literature values, collected in patent US9555061B2, “Synthesis and analysis of compounds capable of inducing differentiation of human mesenchymal stems cells into hepatocytes” (National University Corporation Torrori University, priority 2011, dated 2017).

Protein sequences, listed by entry. Tags and fused reporters are not part of them.
UniProt P35222, whole entry: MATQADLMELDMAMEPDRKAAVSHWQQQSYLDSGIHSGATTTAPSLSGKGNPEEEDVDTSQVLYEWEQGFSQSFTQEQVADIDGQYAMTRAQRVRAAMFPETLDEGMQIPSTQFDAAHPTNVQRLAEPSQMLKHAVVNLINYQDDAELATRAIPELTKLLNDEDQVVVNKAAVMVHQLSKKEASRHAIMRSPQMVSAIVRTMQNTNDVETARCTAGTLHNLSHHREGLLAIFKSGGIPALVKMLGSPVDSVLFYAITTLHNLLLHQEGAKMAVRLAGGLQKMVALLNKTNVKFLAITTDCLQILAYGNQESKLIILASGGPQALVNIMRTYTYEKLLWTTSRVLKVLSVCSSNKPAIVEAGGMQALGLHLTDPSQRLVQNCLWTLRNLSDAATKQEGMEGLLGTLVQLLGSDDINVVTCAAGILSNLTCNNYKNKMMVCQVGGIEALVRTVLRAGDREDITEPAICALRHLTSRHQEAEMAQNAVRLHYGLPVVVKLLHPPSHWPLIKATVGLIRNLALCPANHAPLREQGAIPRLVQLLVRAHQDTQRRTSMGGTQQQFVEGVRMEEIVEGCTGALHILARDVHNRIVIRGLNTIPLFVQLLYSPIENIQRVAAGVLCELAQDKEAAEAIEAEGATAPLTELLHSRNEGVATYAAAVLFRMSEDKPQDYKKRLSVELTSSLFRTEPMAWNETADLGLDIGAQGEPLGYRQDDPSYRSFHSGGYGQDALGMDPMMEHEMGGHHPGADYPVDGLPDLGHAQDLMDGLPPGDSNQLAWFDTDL

Target: interaction between β-catenin and TCF (Homo sapiens, UniProt P35222)
Conditions: reportedly; cited from earlier work

Q: With Cc1ccc(C=NNC(=O)c2ccccc2Oc2ccccc2)o1 [PNU-74654, N-[(5-methyl-2-furyl)methylideneamino]-2-phenoxy-benzamide] as the compound, how does the “inhibition of Wnt/β-catenin pathway by blocking the interaction between β-catenin and TCF” value read?
A: inhibits a Wnt/β-catenin pathway
